Test results as given in patent US20140171510A1, “HO[…] AND/OR CONJUGATES OF AMPHETAMINE AND OTHER […] PROCESSES FOR MAKING AND USING THE SAME” (priority 2011, published 2014).

Experiment: Intravenous study in rats, plasma d-amphetamine by ELISA (Example 8)
Details: […] equivalent

l-lysine-d-amphetamine [Lys-Amp, reference compound]
Tmax: 15 m
